Like-named read-outs stand apart in the source and are kept apart here.
What was measured:
[1] = target: T1, Delta mMor1 (Mus musculus, UniProt P42866, INS358LEVLFQGP/INS51ENLYFQ); assay: Radioligand competition assay of Dmt1-Dalda on Delta mMor1/Sf9 membranes pre-incubated with VHH; assay type: binding; parameters: expressed in transfected cells; host or cells: Sf9 insect cells, baculovirus-infected (BestBac)
[2] = target: T1, Delta mMor1; conditions: read-out: IC50, displacement of [3H]-diprenorphine; Delta mMor1/Sf9 membranes, 1 nM radioligand, 1 hour at room temperature

Sequences of proteins named here, by UniProt entry; tags and fusion partners are left off. A change or cut given only in a name is not applied to a line headed by its entry.
UniProt P42866: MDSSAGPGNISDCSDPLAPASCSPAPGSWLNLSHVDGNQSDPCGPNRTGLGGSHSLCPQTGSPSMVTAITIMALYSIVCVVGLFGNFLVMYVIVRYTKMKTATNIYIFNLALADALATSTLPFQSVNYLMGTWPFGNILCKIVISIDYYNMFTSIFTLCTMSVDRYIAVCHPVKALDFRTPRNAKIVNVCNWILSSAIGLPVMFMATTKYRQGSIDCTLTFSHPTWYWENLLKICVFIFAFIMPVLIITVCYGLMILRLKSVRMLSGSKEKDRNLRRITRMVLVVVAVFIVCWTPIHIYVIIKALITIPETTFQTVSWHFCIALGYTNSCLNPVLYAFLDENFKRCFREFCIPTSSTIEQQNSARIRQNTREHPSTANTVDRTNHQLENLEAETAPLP

With Dmt1-Dalda the IC50 ([1]; read-out: IC50 of Dmt1-Dalda in presence of XA8633, 1 nM [3H]-diprenorphine, 5 μM XA8633) was 57 nM, the IC50 ([1]; read-out: IC50 of Dmt1-Dalda in presence of mock VHH (CA4910), 1 nM [3H]-diprenorphine, mock VHH CA4910) was 550 nM and the IC50 [2] was 511 nM.

— patent publication US10233241B2 (priority 2014, dated 2019)
